US20240390376A1, “METHOD FOR PREVENTING ADVERSE PREGNANCY OUTCOMES DUE TO USE OF SELECTIVE SEROTONIN REUPTAKE INHIBITORS (SSRI) DURING GESTATION” (Wisconsin Alumni Research Foundation, priority 2023, published 2024)

Test system: SERT-null mice (Sert-/-)
Assay: Effects of fluoxetine in serotonin transporter null mice (FIGS. 3A-3C)
Conditions: mutant mouse with genetic ablation of SERT

CNCCC(Oc1ccc(C(F)(F)F)cc1)c1ccccc1 (stereo not shown) [fluoxetine]
effect of fluoxetine treatment on pregnancy outcomes: not affected
